This passage reports inhibition results from patent US11407757B2.

This assay concerns Gas6 ligand induced AKT phosphorylation. In words: Gas6 ligand induced AKT phosphorylation, western blotting in H1299 NSCLC cells. The format is cell-based. The note with it: Homo sapiens, NCI-H1299, read-out: inhibition activity against Gas6 ligand induced AKT phosphorylation. As for the experimental part: The potent compounds selected in EXAMPLE 2 were tested in Gas6 ligand induced AKT phosphorylation via western blotting assay. For western blotting experiments, H1299 NSCLC cells were cultured in serum free RPMI-1640 medium and culture overnight. On the assay day, two hundred thousand cells were pretreated with compound for 2 hours in 6-well plate, then stimulated by 100 ng/mL Gas6 ligand for 30 mins. Whole cell lysate was harvested by adding 2×SDS Sample Buffer. Proteins were separated by SDS-PAGE electrophoresis and transfer to PVDF membrane. Protein expression was detected using immunoblot with various primary antibodies and secondary antibodies following standard protocol. Antibody against p-AKT (Ser473) and anti-rabbit IgG, HRP-linked secondary antibodies were purchased from Cell Signaling Technology. Antibody against actin was purchased from Millipore. […] Band intensity of western blot was also quantified by ChemiDoc MP Imaging System. Relative intensity of bands corresponding to drug treatment were compared to the ligand alone group. The percentage (%) inhibition at each drug concentration was calculated using the formula: Percentage (%) inhibition=(1−Relative intensity)×100.
Turning to `CCN1CCN(Cc2ccc(Nc3nc(OCCOC)c4c(-c5ccc(OCc6ncccn6)cc5F)c[nH]c4n3)cc2)CC1` [Compound 39], the inhibition at 0.1 µM is above 50%.
With `COCCOc1nc(Nc2ccc(CN3CCN(C)CC3)cc2)nc2[nH]cc(-c3ccc(F)cc3F)c12` [Compound 53] the figure was above 50%; with `COc1nc(Nc2ccc(CN3CCN(C)CC3)cc2)nc2[nH]cc(-c3ccc(F)cc3F)c12` [Compound 25], above 50%.
With `CCN1CCN(Cc2ccc(Nc3nc(OCCOC)c4c(-c5ccc(OCc6ccccn6)cc5F)c[nH]c4n3)cc2)CC1` [Compound 19, N-(4-((4-ethylpiperazin-1-yl)methyl)phenyl)-5-(2-fluoro-4-(pyridin-2-ylmethoxy)phenyl)-4-(2-methoxyethoxy)-7H-pyrrolo[2,3-d]pyrimidin-2-amine] the figure was above 50%.
For the molecule `COc1nc(Nc2ccc(CN3CCC(C)CC3)cc2)nc2[nH]cc(-c3ccc(S(=O)(=O)N(C)C)cc3)c12` [Compound 5], the inhibition at 0.1 µM is above 50%.
For `CN1CCN(Cc2ccc(Nc3nc(OCC4CCCO4)c4c(-c5ccc(F)cc5F)c[nH]c4n3)cc2)CC1` (stereo not shown) [Compound 52] the value was above 50%.
For `COCCOc1nc(Nc2ccc(CN3CCN(C)CC3)cc2)nc2[nH]cc(-c3ccc(S(=O)(=O)N(C)C)cc3)c12` [Compound 79] the value was above 50%; for `COCCOc1nc(Nc2ccc(CN3CCN(C)CC3)cc2)nc2[nH]cc(-c3ccc4nc(C)oc4c3)c12` [Compound 64], above 50%.
As for `CN1CCN(Cc2ccc(Nc3nc(NC4CCOCC4)c4c(-c5ccc(F)cc5F)c[nH]c4n3)cc2)CC1` [Compound 75, 5-(2,4-difluorophenyl)-N2-(4-((4-methylpiperazin-1-yl)methyl)phenyl)-N4-(tetrahydro-2H-pyran-4-yl)-7H-pyrrolo[2,3-d]pyrimidine-2,4-diamine], the inhibition at 0.1 µM was above 50%.
In the case of `COCCOc1nc(Nc2ccc(CN3CCN(C)CC3)cc2)nc2[nH]cc(-c3ccc(OCn4ccccc4=O)cc3F)c12` [Compound 68], the inhibition at 0.1 µM was above 50%.
With `COCCOc1nc(Nc2ccc(CN3CCN(C)CC3)cc2)nc2[nH]cc(-c3ccc(F)c(Cl)c3)c12` [Compound 50] the figure was above 50%; with `COCCOc1nc(Nc2ccc(CN3CCC(C)CC3)cc2)nc2[nH]cc(-c3ccc(OCc4ncccn4)cc3F)c12` [Compound 34], above 50%.
For the molecule `COCCOc1nc(Nc2ccc(CN3CCN(C)CC3)cc2)nc2[nH]cc(-c3ccc(OCc4ncccn4)cc3F)c12` [Compound 107], the inhibition at 0.1 µM is above 50%.
